Reference: US20090312270A1, “Peptides having an ace inhibiting effect” (priority 2005, published 2009)
Each block holds one compound with its values, some of them ahead of it.

Key:
[1] = Simulated in-vitro gastro-intestinal digestion of protein hydrolysate (PH); assay type: in vitro ADME; conditions: for resistance against GIT digestion: PH processed by artificial gastro-intestinal tract
From the text: Milk proteins and milk protein hydrolysates are commonly known as precursors of a large range of ACE inhibitory peptides. After consumption, the proteins and peptides are subjected to various digestive enzymatic processes in the human gastrointestinal tract, which results in the release of in-vivo ACE inhibitory peptides. In order to assess the break-down of the identified bioactive peptides and the formation of novel active peptides after human consumption, PH was processed by an artificial gastro-intestinal tract, which simulated conditions typically found in the human body. At certain times samples were taken from the GIT model system. These were also analysed using the on-line HPLC-Bioassay-MS or HRS-MS system.
Digestion of protein hydrolysate (hereafter PH), a hydrolyzed casein protein isolate obtained from DSM (Delft, The Netherlands). The protein hydrolysate (PH) was prepared by incubation of 10 wt % potassium caseinate with overproduced and essentially pure endoprotease from Aspergillus niger as described in WO 02/45524.
The digestion procedure was performed using a dissolution model (Vankel) with a 100 ml flask. The temperature of the water bath was set to 37.5° C. and the paddle speed was chosen such that the sample was kept in suspension (100 rpm).
About 3.4 grams of PH (protein level of 59%) was dissolved/suspended in 100 ml Milli-Q water. During gastric simulation 5 M HCl was used to decrease the pH, at the end of gastric simulation and during the duodenal phase 5 M NaOH was used to raise the pH.
The protein hydrolysate suspension was preheated to 37.5° C. At t=0 min 0.31 g of pepsin (Fluka order no. 77161) was suspended separately in 5 ml of the sample and was directly added.
The pH was adjusted slowly by hand using a separate pH meter according to the following scheme;
At t=90 min 0.139 g of 8 times USP pancreatin (Sigma order no. P7545) was suspended separately in 5 ml of the sample and was directly added;
The experiment was stopped at t=125 min and the pH was checked (was still pH 7).
The samples were transferred into a beaker and were heated in a microwave till boiling. Subsequently, the samples were transferred into glass tubes and incubated at 95° C. for 60 min. This is necessary to inactivate all protease activity. After cooling the samples were put in falcon tubes and centrifuged for 10 min at 3000×g. The supernatant was freeze dried. The total N concentration was determined and converted to protein level using the Kjeldahl factor of casein (6.38). The protein level of the PH digest was 48.4%.

[2] = Simulated in-vitro gastro-intestinal digestion of synthetic MAP and ITP (micro-dissolution); assay type: in vitro ADME
[3] = in PH after digestion in artificial human gastro intestinal tract

resistance against GIT digestion [1]: high resistance
Concentration in μg g^−1 powder [1, 3]: 889.13 μg g^−1 powder
Concentration in μg g^−1 powder ([1]; in PH before digestion): 903.74 μg g^−1 powder
% average ([2]; 1 microgram/ml, time 0 min): 100%
% remaining trial 1 ([2]; 1 microgram/ml, time 0 min): 100%
% remaining trial 2 ([2]; 1 microgram/ml, time 0 min): 100%
conc Ng/ml a ([2]; 1 microgram/ml, time 0 min): 1325.201 ng/mL
conc Ng/ml b ([2]; 1 microgram/ml, time 0 min): 901.297 ng/mL
% remaining trial 1 ([2]; 1 microgram/ml, time 30 min): 93%
conc Ng/ml a ([2]; 1 microgram/ml, time 30 min): 1236.423 ng/mL
conc Ng/ml b ([2]; 1 microgram/ml, time 30 min): 952.165 ng/mL
% remaining trial 1 ([2]; 1 microgram/ml, time 60 min): 72%
% remaining trial 2 ([2]; 1 microgram/ml, time 60 min): 99%
conc Ng/ml a ([2]; 1 microgram/ml, time 60 min): 950.665 ng/mL
conc Ng/ml b ([2]; 1 microgram/ml, time 60 min): 893.015 ng/mL
% remaining trial 1 ([2]; 1 microgram/ml, time 65 min): 55%
% remaining trial 2 ([2]; 1 microgram/ml, time 65 min): 75%
conc Ng/ml a ([2]; 1 microgram/ml, time 65 min): 722.452 ng/mL
conc Ng/ml b ([2]; 1 microgram/ml, time 65 min): 677.991 ng/mL
% remaining trial 2 ([2]; 1 microgram/ml, time 75 min): 77%
conc Ng/ml b ([2]; 1 microgram/ml, time 75 min): 698.078 ng/mL
% remaining trial 1 ([2]; 1 microgram/ml, time 90 min): 46%
% remaining trial 2 ([2]; 1 microgram/ml, time 90 min): 78%
conc Ng/ml a ([2]; 1 microgram/ml, time 90 min): 603.143 ng/mL
conc Ng/ml b ([2]; 1 microgram/ml, time 90 min): 704.863 ng/mL
% remaining trial 1 ([2]; 1 microgram/ml, time 120 min): 53%
% remaining trial 2 ([2]; 1 microgram/ml, time 120 min): 75%
conc Ng/ml a ([2]; 1 microgram/ml, time 120 min): 701.749 ng/mL
conc Ng/ml b ([2]; 1 microgram/ml, time 120 min): 678.751 ng/mL
% average ([2]; 10 microgram/ml, time 0 min): 100%
% remaining trial 1 ([2]; 10 microgram/ml, time 0 min): 100%
% remaining trial 2 ([2]; 10 microgram/ml, time 0 min): 100%
conc Ng/ml a ([2]; 10 microgram/ml, time 0 min): 11230.3 ng/mL
conc Ng/ml b ([2]; 10 microgram/ml, time 0 min): 9388.467 ng/mL
% remaining trial 1 ([2]; 10 microgram/ml, time 30 min): 78%
% remaining trial 2 ([2]; 10 microgram/ml, time 30 min): 84%
conc Ng/ml a ([2]; 10 microgram/ml, time 30 min): 8725.687 ng/mL
conc Ng/ml b ([2]; 10 microgram/ml, time 30 min): 7884.828 ng/mL
% remaining trial 1 ([2]; 10 microgram/ml, time 60 min): 76%
conc Ng/ml a ([2]; 10 microgram/ml, time 60 min): 8542.271 ng/mL
conc Ng/ml b ([2]; 10 microgram/ml, time 60 min): 9951.495 ng/mL
% remaining trial 1 ([2]; 10 microgram/ml, time 65 min): 60%
% remaining trial 2 ([2]; 10 microgram/ml, time 65 min): 91%
conc Ng/ml a ([2]; 10 microgram/ml, time 65 min): 6739.74 ng/mL
conc Ng/ml b ([2]; 10 microgram/ml, time 65 min): 8504.414 ng/mL
% remaining trial 1 ([2]; 10 microgram/ml, time 75 min): 62%
% remaining trial 2 ([2]; 10 microgram/ml, time 75 min): 64%
conc Ng/ml a ([2]; 10 microgram/ml, time 75 min): 7016.45 ng/mL
conc Ng/ml b ([2]; 10 microgram/ml, time 75 min): 6052.258 ng/mL
% remaining trial 1 ([2]; 10 microgram/ml, time 90 min): 64%
% remaining trial 2 ([2]; 10 microgram/ml, time 90 min): 60%
conc Ng/ml a ([2]; 10 microgram/ml, time 90 min): 7212.26 ng/mL
conc Ng/ml b ([2]; 10 microgram/ml, time 90 min): 5660.004 ng/mL
% remaining trial 1 ([2]; 10 microgram/ml, time 120 min): 46%
conc Ng/ml a ([2]; 10 microgram/ml, time 120 min): 5168.85 ng/mL
SMILES: CC[C@H](C)[C@H](N)C(=O)N[C@H](C(=O)N1CCC[C@H]1C(=O)O)[C@@H](C)O [ITP, Ile-Thr-Pro]

resistance against GIT digestion [1]: high resistance
Concentration in μg g^−1 powder [1, 3]: 3095.8 μg g^−1 powder
Concentration in μg g^−1 powder ([1]; in PH before digestion): 2851.4 μg g^−1 powder
% average ([2]; 1 microgram/ml, time 0 min): 100%
% remaining trial 1 ([2]; 1 microgram/ml, time 0 min): 100%
% remaining trial 2 ([2]; 1 microgram/ml, time 0 min): 100%
conc Ng/ml b ([2]; 1 microgram/ml, time 0 min): 2962.5 ng/mL
% remaining trial 2 ([2]; 1 microgram/ml, time 30 min): 93%
conc Ng/ml b ([2]; 1 microgram/ml, time 30 min): 2760 ng/mL
% remaining trial 1 ([2]; 1 microgram/ml, time 60 min): 64%
conc Ng/ml a ([2]; 1 microgram/ml, time 60 min): 1902.6 ng/mL
% remaining trial 1 ([2]; 1 microgram/ml, time 65 min): 47%
% remaining trial 2 ([2]; 1 microgram/ml, time 65 min): 56%
conc Ng/ml a ([2]; 1 microgram/ml, time 65 min): 1384.6 ng/mL
conc Ng/ml b ([2]; 1 microgram/ml, time 65 min): 1654.1 ng/mL
% remaining trial 1 ([2]; 1 microgram/ml, time 75 min): 43%
% remaining trial 2 ([2]; 1 microgram/ml, time 75 min): 54%
conc Ng/ml b ([2]; 1 microgram/ml, time 75 min): 1608.3 ng/mL
% remaining trial 1 ([2]; 1 microgram/ml, time 90 min): 25%
% remaining trial 2 ([2]; 1 microgram/ml, time 90 min): 31%
conc Ng/ml a ([2]; 1 microgram/ml, time 90 min): 730.5 ng/mL
conc Ng/ml b ([2]; 1 microgram/ml, time 90 min): 911.6 ng/mL
% remaining trial 1 ([2]; 1 microgram/ml, time 120 min): 13%
% remaining trial 2 ([2]; 1 microgram/ml, time 120 min): 17%
conc Ng/ml a ([2]; 1 microgram/ml, time 120 min): 377.2 ng/mL
conc Ng/ml b ([2]; 1 microgram/ml, time 120 min): 503.3 ng/mL
% average ([2]; 10 microgram/ml, time 0 min): 100%
% remaining trial 1 ([2]; 10 microgram/ml, time 0 min): 100%
% remaining trial 2 ([2]; 10 microgram/ml, time 0 min): 100%
conc Ng/ml b ([2]; 10 microgram/ml, time 0 min): 82499.2 ng/mL
% remaining trial 1 ([2]; 10 microgram/ml, time 30 min): 61%
% remaining trial 2 ([2]; 10 microgram/ml, time 30 min): 93%
conc Ng/ml a ([2]; 10 microgram/ml, time 30 min): 50635.6 ng/mL
conc Ng/ml b ([2]; 10 microgram/ml, time 30 min): 76600.6 ng/mL
% remaining trial 1 ([2]; 10 microgram/ml, time 65 min): 35%
% remaining trial 2 ([2]; 10 microgram/ml, time 65 min): 40%
conc Ng/ml a ([2]; 10 microgram/ml, time 65 min): 28492.5 ng/mL
conc Ng/ml b ([2]; 10 microgram/ml, time 65 min): 33339.1 ng/mL
% remaining trial 1 ([2]; 10 microgram/ml, time 75 min): 27%
% remaining trial 2 ([2]; 10 microgram/ml, time 75 min): 27%
conc Ng/ml a ([2]; 10 microgram/ml, time 75 min): 21936.4 ng/mL
conc Ng/ml b ([2]; 10 microgram/ml, time 75 min): 21991.9 ng/mL
% remaining trial 1 ([2]; 10 microgram/ml, time 90 min): 9%
% remaining trial 2 ([2]; 10 microgram/ml, time 90 min): 13%
conc Ng/ml a ([2]; 10 microgram/ml, time 90 min): 7588.3 ng/mL
conc Ng/ml b ([2]; 10 microgram/ml, time 90 min): 10490.8 ng/mL
% average ([2]; 10 microgram/ml, time 120 min): 3%
% remaining trial 1 ([2]; 10 microgram/ml, time 120 min): 3%
% remaining trial 2 ([2]; 10 microgram/ml, time 120 min): 3%
conc Ng/ml a ([2]; 10 microgram/ml, time 120 min): 2810.6 ng/mL
conc Ng/ml b ([2]; 10 microgram/ml, time 120 min): 2661.8 ng/mL
SMILES: CSCC[C@H](N)C(=O)N[C@@H](C)C(=O)N1CCC[C@H]1C(=O)O [MAP, Met-Ala-Pro]
